Experimental data reported in patent US20070213359A1 (ACADIA Pharmaceuticals Inc., priority 2005, published 2007).

Chains of the proteins cited; added tags and fusions are not shown.
UniProt Q92847, whole entry: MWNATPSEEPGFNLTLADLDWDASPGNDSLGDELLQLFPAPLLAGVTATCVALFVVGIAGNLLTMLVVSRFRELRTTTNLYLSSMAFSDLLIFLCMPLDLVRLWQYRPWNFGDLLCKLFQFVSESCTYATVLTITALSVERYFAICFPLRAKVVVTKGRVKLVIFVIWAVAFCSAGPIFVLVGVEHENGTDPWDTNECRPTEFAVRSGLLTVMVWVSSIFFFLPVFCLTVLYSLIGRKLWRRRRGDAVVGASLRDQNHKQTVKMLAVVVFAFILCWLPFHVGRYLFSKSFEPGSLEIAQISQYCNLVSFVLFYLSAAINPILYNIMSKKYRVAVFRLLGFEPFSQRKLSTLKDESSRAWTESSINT

Target: Ghrelin receptor (Homo sapiens, UniProt Q92847)
Assay: Receptor Selection and Amplification Technology (R-SAT) assay
Format: cell-based
Parameters: expressed in transfected cells; host or cells: NIH3T3
Details: percent inhibition at saturating ligand, normalized to reference ligand Substance P analog = 100%; read-out: RSAT Eff(%)

Emax: 100%
SMILES: CC(C)C[C@H](NC(=O)[C@H](CC(C)C)NC(=O)[C@@H](Cc1c[nH]c2ccccc12)NC(=O)[C@H](Cc1ccccc1)NC(=O)[C@@H](Cc1c[nH]c2ccccc12)NC(=O)[C@H](CCC(N)=O)NC(=O)[C@@H](Cc1ccccc1)NC(=O)[C@@H]1CCCN1C(=O)[C@H](CCCCN)NC(=O)[C@@H]1CCCN1C(=O)[C@H](N)CCCNC(=N)N)C(N)=O [substance P analog, Substance P analog, reference compound]
